Sequences of proteins named here, by UniProt entry; tags and fusion partners are left off.
UniProt O15530, whole entry: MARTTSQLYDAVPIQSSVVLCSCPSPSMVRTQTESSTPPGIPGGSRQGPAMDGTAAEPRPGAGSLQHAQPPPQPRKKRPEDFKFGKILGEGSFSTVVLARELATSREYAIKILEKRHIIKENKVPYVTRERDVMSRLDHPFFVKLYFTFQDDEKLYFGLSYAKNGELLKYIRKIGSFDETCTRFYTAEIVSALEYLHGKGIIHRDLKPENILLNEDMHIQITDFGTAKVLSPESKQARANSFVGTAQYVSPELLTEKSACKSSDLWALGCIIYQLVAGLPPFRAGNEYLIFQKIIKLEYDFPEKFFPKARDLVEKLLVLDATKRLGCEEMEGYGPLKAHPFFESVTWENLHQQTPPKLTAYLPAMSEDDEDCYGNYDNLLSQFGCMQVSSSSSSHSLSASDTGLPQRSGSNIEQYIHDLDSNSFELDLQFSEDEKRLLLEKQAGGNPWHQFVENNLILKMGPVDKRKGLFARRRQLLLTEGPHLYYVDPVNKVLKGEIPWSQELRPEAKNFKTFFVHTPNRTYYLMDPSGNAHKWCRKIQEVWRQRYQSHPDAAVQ

In patent US11542492B2 (Celgene CAR LLC, priority 2009, dated 2023):

Target: PDPK1 enzyme (Homo sapiens, UniProt O15530)
Assay: PDK1-OMNIA kinase assay (ST28-Sox peptide)
Details: read-out: Inhibition/Modification Designation (IC50, PDK1-OMNIA); PDPK1 enzyme pre-incubated 30 min at 25° C. with compound; [ATP]=5 μM; ST28-Sox peptide substrate

IC50: 0.01 to 0.1 µM
Compound: CC(C)(C(N)=O)C(=O)NCCCNc1nc(Nc2cccc(NC(=O)CNC(=O)[C@H]3CCC(=O)O3)c2)ncc1Br
